Assay results published in patent US20230053493A1, “ONE STEP METHODS, KITS, AND SYSTEMS FOR THE MEASUREMENT OF CONCENTRATIONS OF UNBOUND BILIRUBIN IN BIOLOGICAL FLUIDS” (priority 2019, published 2023).
Like-named read-outs stand apart in the source and are kept apart here.

Chains of the proteins cited; added tags and fusions are not shown. Residues count along the entry.
UniProt P02768, 25-609: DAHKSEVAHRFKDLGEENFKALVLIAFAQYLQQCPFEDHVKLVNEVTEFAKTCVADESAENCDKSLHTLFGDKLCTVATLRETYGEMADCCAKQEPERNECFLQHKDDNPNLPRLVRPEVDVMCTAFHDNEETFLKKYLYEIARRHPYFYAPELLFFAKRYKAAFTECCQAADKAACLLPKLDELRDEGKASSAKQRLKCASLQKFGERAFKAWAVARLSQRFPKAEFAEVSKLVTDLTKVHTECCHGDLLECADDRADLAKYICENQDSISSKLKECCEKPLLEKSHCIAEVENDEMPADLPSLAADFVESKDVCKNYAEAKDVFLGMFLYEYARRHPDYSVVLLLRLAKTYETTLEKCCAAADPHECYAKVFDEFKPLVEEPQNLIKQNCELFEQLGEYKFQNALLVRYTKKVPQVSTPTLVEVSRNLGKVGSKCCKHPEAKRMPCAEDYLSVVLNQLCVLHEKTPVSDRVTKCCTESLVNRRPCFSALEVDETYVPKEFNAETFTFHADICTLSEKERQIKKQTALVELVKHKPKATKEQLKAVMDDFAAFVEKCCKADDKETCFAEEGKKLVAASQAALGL

Molecular target: Albumin (Homo sapiens, UniProt P02768)
Details: adult serum spiked with bilirubin, cefazolin 3.76 mM

With `Cc1nnc(SCC2=C(C(=O)O)N3C(=O)[C@@H](NC(=O)Cn4cnnn4)[C@H]3SC2)s1` [Cefazolin] as the compound, how does the “UB” value (Arrows UB2 analyzer (52 fold dilution)) read?
Its value is 26.8 nM.

What about the “UB” value (UBCheck (no dilution)) of the same compound?
Its value is 148.7 nM.
